Assay outcomes from PubChem.
Compounds with a hit are over-represented: about 0.59% of the library has one in this group of screens.
PKM2 act – qHTS Assay for Activators of Human Muscle isoform 2 Pyruvate Kinase; purified PKM2, Kinase-Glo ATP luminescence, activation; response scale: 0% is enzyme alone, no compound; AID 1631, 2009; Potency, µM (top dose mostly 57.5 µM), for inactives: at the highest dose activation, usual class: activators; actives 0.34% (n = 260,000); note: potency is the fitted concentration of half-maximal effect; % is set by controls: 0 for no effect and ±100 for the full control effect; nearly all actives have a fitted effect of over 55% in size
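Purified hPK-M2 (>95% pure) converted ADP (0.1 mM final) to ATP with 0.5 mM PEP in 50 mM imidazole pH7.2, KCl, MgCl2, Tween 20, BSA; 1 h at room temperature. ATP detected by Kinase-Glo luminescence.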
AT treatment – qHTS Assay for Identifying a Potential Treatment of Ataxia-Telangiectasia. F2112 A-T fibroblasts, KAP-1 phosphorylation AlphaLISA; neocarzinostatin DNA damage 30 min before lysis. Potency, µM (doses to about 57.5 µM), inactives show top-dose activation, actives largely listed as activators. actives 0.19% (n = 320,000); note: potency is the fitted concentration of half-maximal effect; % of control where 0% means no effect; nearly all actives have a fitted effect of over 45% in size
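hTERT-immortalized A-T patient fibroblasts (F2112), 500 cells/well in OPTI-MEM, 1% FBS, got compounds for 60 min, then NCS for 30 min at 37C. Lysates were then assayed for phospho-KAP-1 by AlphaLISA (anti-pKAP1 donor, anti-KAP1 acceptor beads), 6 hr at 25C.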
IL-2 act – qHTS of IL-2 Activators; IL-2 activation reporter assay, cell-based qHTS; stimulated with anti-CD3/CD4/CD28 beads; in transgenic mouse T cells; activation, % (series mostly up to about 46 µM); actives 0.065% (n = 360,000); AID 652025, 2013; in the data active = activation above about 50%; inconclusive = mostly about 30% to 49%; note: 0% is about no effect
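Readout: EGFP and DsRed signals by fluorescent plate cytometry. Unstimulated transgenic mouse T cells received compound 60 min before antibody-bead stimulation, then incubated 18 h at 37 degrees C.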
Rango-impB inh – qHTS Assay for Inhibitors of Rango (Ran-regulated importin-beta cargo) - Importin beta complex formation; Rango CFP/YFP FRET sensor + importin beta, 45 min; AID 540263, 2011; Importin subunit beta-1 (Homo sapiens), Q14974; Potency, µM (series often up to 92.2 µM), inactives show top-dose inhibition of complex formation; actives 0.031% (n = 340,000); calls by dose curve;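 note: potency is the fitted concentration of half-maximal effect; 0% = DMSO wells and 100% = buffer wells lacking importin beta; nearly all actives have a fitted effect of over 15% in size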
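FRET biosensor (snurportin 1 IBB flanked by EYFP and cerulean), 50 nM, with compound 5 min, then 0.125 microM importin beta in PBS, 1 mM DTT, 0.02% Tween-20, 0.1% BSA. CFP/YFP ratio read after 45 min at room temperature; pre-read flags interference.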
Rango dissoc inh – qHTS Assay for Inhibitors of RanGTP induced Rango (Ran-regulated importin-beta cargo) - Importin beta complex dissociation; actives 0.071% (n = 340,000); Snurportin-1 (Homo sapiens) + GTP-binding nuclear protein Ran (Homo sapiens) + Importin …; Potency, µM (titrated, usually from 46.1 µM), inactives show at the top dose activity change, negative = inhibition; Biochemical FRET Rango-importin beta, RanGTP-induced dissociation; calls by dose curve; note: potency is the fitted concentration of half-maximal effect; % of control where 0% means no effect; nearly all actives have a fitted effect of over 45% in size
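Rango/importin beta premix (0.1/0.25 uM final), PBS + 1 mM DTT + 0.02% Tween-20 + 0.1% BSA; cpd 5 min RT; FRET pre-read; + RanGTP-RCC1 (0.6 uM Ran, 2 mM GTP, 0.2 uM RCC1); 45 min RT; FRET post-read, ex 430, em 486/530 nm.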
The depositor's hits bear a star; [ ] = dose if it differs, or a comment. Unless noted, calls come from the whole dose curve; as a rule, active = well fitted activation curve with a large enough effect; inconclusive = small, poorly fitted or top-dose-only effect; inactive = no such curve, though single readings can be large or run the other way.

By UniProt entry, the sequences of proteins in these tests, tags left out.
Importin subunit beta-1 (Homo sapiens), Q14974, UniProt Q14974, whole entry, looked up: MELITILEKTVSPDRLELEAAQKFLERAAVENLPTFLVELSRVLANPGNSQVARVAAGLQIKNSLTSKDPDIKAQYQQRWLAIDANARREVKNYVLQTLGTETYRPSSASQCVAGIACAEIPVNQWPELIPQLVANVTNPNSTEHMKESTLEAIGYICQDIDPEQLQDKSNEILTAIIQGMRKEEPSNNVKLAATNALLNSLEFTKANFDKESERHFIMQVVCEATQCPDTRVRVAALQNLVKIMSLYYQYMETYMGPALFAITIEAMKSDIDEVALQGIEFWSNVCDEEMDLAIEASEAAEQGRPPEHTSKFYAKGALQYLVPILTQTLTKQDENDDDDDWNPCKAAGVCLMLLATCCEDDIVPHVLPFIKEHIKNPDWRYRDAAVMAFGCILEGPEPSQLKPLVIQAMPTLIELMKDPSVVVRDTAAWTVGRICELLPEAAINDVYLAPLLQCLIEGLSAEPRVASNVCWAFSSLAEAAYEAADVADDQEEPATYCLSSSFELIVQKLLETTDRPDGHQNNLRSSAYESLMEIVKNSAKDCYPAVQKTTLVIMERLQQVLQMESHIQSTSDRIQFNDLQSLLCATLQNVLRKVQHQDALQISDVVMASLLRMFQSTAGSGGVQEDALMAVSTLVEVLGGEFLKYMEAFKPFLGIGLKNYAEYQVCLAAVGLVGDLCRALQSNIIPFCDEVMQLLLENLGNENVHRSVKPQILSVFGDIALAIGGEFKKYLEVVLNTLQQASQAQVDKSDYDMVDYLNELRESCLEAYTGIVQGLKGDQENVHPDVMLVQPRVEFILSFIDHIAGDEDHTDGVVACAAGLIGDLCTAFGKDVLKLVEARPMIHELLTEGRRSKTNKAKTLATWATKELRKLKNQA

How did O=C(CCN=C1NS(=O)(=O)c2ccccc21)NCc1ccccc1F do in these assays?
AT treatment: 8%; IL-2 act: 0; Rango-impB inh: -2%; Rango dissoc inh: 1%

What do the screens show for `COC(=O)C1=CN(Cc2ccccc2)C=C(C(=O)OC)C1c1ccc(O)c(OC)c1`?
PKM2 act: -10%; AT treatment: 2%; IL-2 act: -1; Rango-impB inh: inconclusive; Rango dissoc inh: 2%

What do the screens show for `COC(=O)C1=CN(Cc2ccccc2)C=C(C(=O)OC)C1c1ccc(OC)c(OC)c1`?
PKM2 act: 0%; AT treatment: -7%; IL-2 act: 1; Rango-impB inh: inconclusive; Rango dissoc inh: 13µM*

Results for O=C(N/N=C/C=C/c1ccc([N+](=O)[O-])cc1)c1cccs1 ?
PKM2 act: -3%; AT treatment: -2%; IL-2 act: 2; Rango-impB inh: 26µM*; Rango dissoc inh: -6%

What do the screens show for `CCCCC1=CC2=CC(=O)C(C)(OC(=O)CC)C(=O)C2=CN1Cc1ccc(OC)cc1` (stereo unspecified)?
PKM2 act: -10%[11.5 µM]; AT treatment: -19%; IL-2 act: 0; Rango-impB inh: inconclusive; Rango dissoc inh: 8.2µM*

Results for Cc1ccc(Cn2ncc3c(N4CCCC4)ncnc32)cc1 ?
PKM2 act: 13µM*; AT treatment: 0%; IL-2 act: 0; Rango-impB inh: 0%; Rango dissoc inh: 5%

How did Clc1ccc(Cn2ncc3c(N4CCCC4)ncnc32)cc1 do in these assays?
PKM2 act: -9%; AT treatment: -9%; IL-2 act: -1; Rango-impB inh: 1%; Rango dissoc inh: 3%

Results for COc1cccc(C2CN(c3ccc(F)cc3F)N=C2c2cccs2)c1OC (stereo unspecified) ?
PKM2 act: 7%; AT treatment: 28µM*; IL-2 act: -1; Rango-impB inh: inconclusive; Rango dissoc inh: inconclusive

What do the screens show for `O=c1oc2ccc(Br)cc2cc1S(=O)(=O)c1ccc(F)cc1`?
PKM2 act: 2.8µM*; AT treatment: 29%; IL-2 act: -1; Rango-impB inh: inconclusive; Rango dissoc inh: inconclusive

How did Cc1ncc(CO)c2cc(S(=O)(=O)c3ccc(F)cc3)c(=O)oc12 do in these assays?
PKM2 act: -6%; AT treatment: -1%; IL-2 act: 4; Rango-impB inh: 4%; Rango dissoc inh: -8%

What do the screens show for `O=C(NC1CCOCC1)C1CCC(=O)N(CCc2ccc(Cl)cc2)C1` (stereo unspecified)?
AT treatment: -1%; IL-2 act: -2; Rango-impB inh: 0%; Rango dissoc inh: -2%

What do the screens show for `O=C(O)c1ccccc1NS(=O)(=O)c1cccc(-n2sc3ccccc3c2=O)c1`?
PKM2 act: 2.5µM*; AT treatment: -7%; IL-2 act: 0; Rango-impB inh: -2%; Rango dissoc inh: 11%

How did CN1CCc2nc(SCC(=O)Nc3cccc(F)c3)c(C#N)c(-c3cccs3)c2C1 do in these assays?
PKM2 act: 18µM*; AT treatment: -4%; IL-2 act: -1; Rango-impB inh: inconclusive; Rango dissoc inh: -18%

How did CN1CCc2nc(SCC(=O)Nc3ccc(OC(F)(F)F)cc3)c(C#N)c(-c3cccs3)c2C1 do in these assays?
PKM2 act: -11%; AT treatment: -9%; IL-2 act: 0; Rango-impB inh: inconclusive; Rango dissoc inh: inconclusive

Results for CCOc1cccc(/C=N/NC(=S)Nc2cc(S(=O)(=O)N3CCOCC3)ccc2N2CCOCC2)c1O ?
PKM2 act: -1%; AT treatment: -2%; IL-2 act: 0; Rango-impB inh: inconclusive; Rango dissoc inh: 3.7µM*

Quoted at random: 2 entries already listed, in no set order.
How did Clc1ccc(Cn2ncc3c(N4CCCC4)ncnc32)cc1 do in these assays?
PKM2 act: -9%; AT treatment: -9%; IL-2 act: -1; Rango-impB inh: 1%; Rango dissoc inh: 3%

What do the screens show for `O=C(O)c1ccccc1NS(=O)(=O)c1cccc(-n2sc3ccccc3c2=O)c1`?
PKM2 act: 2.5µM*; AT treatment: -7%; IL-2 act: 0; Rango-impB inh: -2%; Rango dissoc inh: 11%
